Measured values taken from patent US20060052582A1 (published 2006).

Amino acid sequences for entries named in this document (tags omitted). A change or cut given only in a name is not applied to a line headed by its entry.
UniProt Q8TD19: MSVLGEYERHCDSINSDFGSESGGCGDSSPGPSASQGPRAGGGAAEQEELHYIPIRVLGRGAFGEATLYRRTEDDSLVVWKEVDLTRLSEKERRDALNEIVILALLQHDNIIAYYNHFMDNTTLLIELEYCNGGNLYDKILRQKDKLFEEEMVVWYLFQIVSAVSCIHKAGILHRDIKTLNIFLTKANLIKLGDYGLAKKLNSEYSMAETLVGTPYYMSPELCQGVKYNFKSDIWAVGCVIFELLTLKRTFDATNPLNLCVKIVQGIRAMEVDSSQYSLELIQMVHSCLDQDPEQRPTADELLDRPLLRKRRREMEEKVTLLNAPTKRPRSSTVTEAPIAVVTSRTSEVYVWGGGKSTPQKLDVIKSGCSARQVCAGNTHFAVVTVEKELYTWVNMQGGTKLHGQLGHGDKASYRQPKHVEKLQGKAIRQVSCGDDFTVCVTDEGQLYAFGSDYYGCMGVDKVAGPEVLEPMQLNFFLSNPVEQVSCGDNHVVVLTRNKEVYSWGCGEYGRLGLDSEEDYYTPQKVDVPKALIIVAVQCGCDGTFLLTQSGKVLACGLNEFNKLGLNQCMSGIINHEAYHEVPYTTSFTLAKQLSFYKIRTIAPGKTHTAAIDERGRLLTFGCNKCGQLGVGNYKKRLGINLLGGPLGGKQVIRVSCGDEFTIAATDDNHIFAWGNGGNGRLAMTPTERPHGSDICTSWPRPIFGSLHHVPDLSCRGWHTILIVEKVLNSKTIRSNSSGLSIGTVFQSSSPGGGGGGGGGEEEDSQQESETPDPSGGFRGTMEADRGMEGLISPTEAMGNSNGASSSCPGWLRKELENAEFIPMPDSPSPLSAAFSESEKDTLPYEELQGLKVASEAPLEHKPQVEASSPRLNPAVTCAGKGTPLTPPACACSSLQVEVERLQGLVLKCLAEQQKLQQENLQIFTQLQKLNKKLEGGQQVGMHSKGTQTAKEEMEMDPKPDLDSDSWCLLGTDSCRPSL

Molecular target: T1, FLAG Nercc (1-891) (human, UniProt Q8TD19 1-891)
T1 sequence: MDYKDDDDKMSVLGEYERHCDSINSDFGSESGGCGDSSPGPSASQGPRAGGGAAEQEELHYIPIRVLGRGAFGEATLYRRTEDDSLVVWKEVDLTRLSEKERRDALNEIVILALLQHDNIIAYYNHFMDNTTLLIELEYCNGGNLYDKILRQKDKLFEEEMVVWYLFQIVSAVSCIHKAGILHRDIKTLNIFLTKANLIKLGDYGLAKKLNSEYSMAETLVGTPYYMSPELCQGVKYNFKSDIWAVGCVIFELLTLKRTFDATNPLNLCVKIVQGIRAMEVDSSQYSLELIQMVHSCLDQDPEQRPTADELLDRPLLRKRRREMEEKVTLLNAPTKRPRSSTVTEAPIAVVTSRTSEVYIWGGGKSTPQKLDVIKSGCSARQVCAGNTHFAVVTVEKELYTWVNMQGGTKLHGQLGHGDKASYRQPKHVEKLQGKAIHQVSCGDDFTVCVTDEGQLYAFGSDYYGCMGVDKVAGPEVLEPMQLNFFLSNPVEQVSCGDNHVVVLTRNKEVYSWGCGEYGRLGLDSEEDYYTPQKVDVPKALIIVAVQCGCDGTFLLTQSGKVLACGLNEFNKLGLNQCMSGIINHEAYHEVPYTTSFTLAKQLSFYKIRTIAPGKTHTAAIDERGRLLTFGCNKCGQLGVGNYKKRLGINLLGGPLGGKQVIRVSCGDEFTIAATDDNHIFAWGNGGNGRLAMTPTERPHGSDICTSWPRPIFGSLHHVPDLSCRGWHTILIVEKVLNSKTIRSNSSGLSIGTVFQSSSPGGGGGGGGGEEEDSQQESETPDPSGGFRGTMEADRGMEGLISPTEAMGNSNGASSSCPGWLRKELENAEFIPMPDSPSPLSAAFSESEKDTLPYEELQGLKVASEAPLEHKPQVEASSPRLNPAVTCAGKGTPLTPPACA
Assay: GST-agarose pull-down from co-transfected HEK293 cells, anti-FLAG blot

B1: GST Nercc (891-940) (other)
chain: MSPILGYWKIKGLVQPTRLLLEYLEEKYEEHLYERDEGDKWRNKKFELGLEFPNLPYYIDGDVKLTQSMAIIRYIADKHNMLGGCPKERAEISMLEGAVLDIRYGVSRIAYSKDFETLKVDFLSKLPEMLKMFEDRLCHKTYLNGDHVTHPDFMLYDALDVVLYMDPMCLDAFPKLVCFKKRIEAIPQIDKYLKSSKYIAWPLQGWQATFGGGDHPPKSDLVPRGSPGACSSLQVEVERLQGLVLKCLAEQQKLQQENLQIFTQLQKLNKKLEGGQQV
notes: also called GST fusion to the Nercc coiled coil
binding result: no binding
